Assay results taken from PMC8111326 (Journal of Molecular Endocrinology, 2021).
pEC50: −log10 of the molar value. “Also recorded” adds a separate entry of the source.

How the values were obtained:
[1] = system: endogenous M3-AChR in HEK293 cells; conditions: HEK293 cell suspensions, ref Mountjoy et al. 2001, cited from earlier work
[2] = system: endogenous M3-AChR in HEK293 cells; conditions: 30 μL injection at 150 μL/s into 210 μL cell suspension
[3] = system: endogenous M3-AChR in HEK293 cells

Question: What does the source list for `C[N+](C)(C)CCOC(N)=O` [carbachol, carbamylcholine chloride]?
Answer: carbachol-induced M3-AChR mobilisation of [Ca2+]i (in words) ([1]; manual assay): induces robust M3-AChR-activated mobilisation of [Ca^2+]i; also recorded: increasing [Ca^2+]i; peak minus baseline carbachol-activated M3-AChR-induced increase in [Ca2+]i ([1]; manual method): ~ 290 nM; pEC50 ([1]; read-out: EC50, carbachol-activated M3-AChR-induced [Ca2+]i, manual method): ~5.30; carbachol M3-AChR-induced [Ca2+]i (in words) [2]: robust carbachol-induced increase for [Ca^2+]i; carbachol-induced calcium signal, esterase cleavage buffer CLB-HG vs HBSS, CLB-LG ([3]; 10^-3, 10^-4 and 10^-5 M, two independent experiments): consistently induced higher calcium signal in the presence of CLB-HG compared with HBSS or CLB-LG; carbachol-induced calcium signal, loading temperature RT vs 37°C ([3]; 10^-4, 10^-5 and 10^-6 M, DMEM, two independent experiments): consistently induced higher calcium signal when Fura-2/AM loading was performed at RT compared with 37 °C; carbachol-induced calcium signal, esterase cleavage temperature 37°C vs RT ([3]; 10^-4, 10^-5 and 10^-6 M, two independent experiments): consistently induced higher calcium signal when Fura-2/AM esterase cleavage was performed at 37°C, compared with RT; carbachol-stimulated calcium signal with 1 mM probenecid vs 2.5 mM ([3]; 10^-4 M, Fig. S6, three independent experiments): no blunting of carbachol-stimulated calcium signal with 1 mM probenecid; carbachol-induced calcium signal with vs without probenecid ([3]; 10^-4 M, probenecid 2.5 mM, three independent experiments): consistently induced higher calcium signal when probenecid was included both in Fura-2/AM loading buffer (DMEM) and Fura-2/AM esterase cleavage buffer (CLB-HG); carbachol-induced calcium signal with vs without pluronic acid ([3]; 10^-4 M, three independent experiments): consistently induced higher calcium signal when Fura-2/AM loading was conducted in the presence of pluronic acid compared with no pluronic acid; carbachol-induced calcium signal, loading time 15 to 75 min ([3]; 10^-4 and 10^-5 M, RT, DMEM, three independent experiments): consistently induced higher calcium signal when Fura-2/AM loading was conducted at RT for 60 min compared with other incubation times; carbachol-induced calcium signal, Fura-2/AM loading buffer DMEM vs CLB-HG ([3]; 10^-4 and 10^-5 M, two independent experiments): consistently induced higher calcium signal with DMEM compared with CLB-HG; carbachol-induced calcium signal, esterase cleavage time 10 to 120 min ([3]; 10^-5 M, CLB-HG, 37°C, three independent experiments): consistently induced higher calcium signal when cells were incubated for 80 min compared with other times
